Measurements from patent US20110263650A1 (priority 2007, published 2011).

Test system: KB-V1 multidrug-resistant subclone of KB-3-1 (DSMZ ACC 149)
Experiment: Growth inhibition assay (MTT), KB-V1 with and without verapamil

## CC[C@H](C)[C@H](NC(=O)[C@H]1CCCCN1C)C(=O)N(COC(=O)CC(C)C)[C@H](C[C@@H](OC(C)=O)c1nc(C(=O)N[C@@H](Cc2ccccc2)C[C@H](C)C(=O)O)cs1)C(C)C [Analogue 1, Tubulysin D, reference compound]
Verapamil 5 μg/ml
  IC50 KB-V1 w/verapamil: 0.025 ng/mL (≈ 0.0302 nM)
Without verapamil
  IC50 KB-V1 w/o verapamil: 0.23 ng/mL (≈ 0.278 nM)

≈ marks a conversion by molar mass, not a printed value.
